Patent US20070059773A1, “Identification of therapeutic compounds” (priority 2003, published 2007)

By UniProt entry, the sequences of proteins in these tests, tags left out. Where a name states a change or a piece, a line headed by the entry shows the natural chain unless it says otherwise.
UniProt P30543, whole entry: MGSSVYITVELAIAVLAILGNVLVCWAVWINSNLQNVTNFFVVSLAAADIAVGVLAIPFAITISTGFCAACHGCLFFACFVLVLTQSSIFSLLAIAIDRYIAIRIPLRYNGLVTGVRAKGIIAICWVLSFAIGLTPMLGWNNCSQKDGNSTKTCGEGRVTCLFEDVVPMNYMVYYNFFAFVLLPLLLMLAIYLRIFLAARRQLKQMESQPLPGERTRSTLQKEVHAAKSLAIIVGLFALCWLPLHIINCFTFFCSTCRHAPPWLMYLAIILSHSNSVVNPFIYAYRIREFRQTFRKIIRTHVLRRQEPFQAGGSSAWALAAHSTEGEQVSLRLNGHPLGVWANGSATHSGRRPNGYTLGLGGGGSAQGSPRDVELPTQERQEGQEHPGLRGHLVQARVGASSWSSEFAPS

Biological target: rat striatal A2A receptor (Rattus norvegicus, UniProt P30543)
Details: one affinity state

| Ki (pH5.5) [nM] | Ki (pH 7.4) [nM] | Substance |
| --- | --- | --- |
| 21 ± 1.4 | 172 ± 21 | phenylisopropyladenosine [R-PIA, reference compound] |
| 271 ± 4.9 | 1710 ± 423 | phenylisopropyladenosine [S-PIA, reference compound] |

Read-outs that look alike come from different tables or passages of the source.
